From PubChem BioAssay AID588489 (Sanford-Burnham Center for Chemical Genomics, 2011)
Only a part is listed here, and it is no random draw. Activity calls are given as the source filed them. No stated cut-off is given here; in the data, active means inhibition above about 35% (passing the limit was not always enough); inactive means the rest.

Amino acid sequences for entries named in this document (tags omitted).
UniProt P11940, whole entry: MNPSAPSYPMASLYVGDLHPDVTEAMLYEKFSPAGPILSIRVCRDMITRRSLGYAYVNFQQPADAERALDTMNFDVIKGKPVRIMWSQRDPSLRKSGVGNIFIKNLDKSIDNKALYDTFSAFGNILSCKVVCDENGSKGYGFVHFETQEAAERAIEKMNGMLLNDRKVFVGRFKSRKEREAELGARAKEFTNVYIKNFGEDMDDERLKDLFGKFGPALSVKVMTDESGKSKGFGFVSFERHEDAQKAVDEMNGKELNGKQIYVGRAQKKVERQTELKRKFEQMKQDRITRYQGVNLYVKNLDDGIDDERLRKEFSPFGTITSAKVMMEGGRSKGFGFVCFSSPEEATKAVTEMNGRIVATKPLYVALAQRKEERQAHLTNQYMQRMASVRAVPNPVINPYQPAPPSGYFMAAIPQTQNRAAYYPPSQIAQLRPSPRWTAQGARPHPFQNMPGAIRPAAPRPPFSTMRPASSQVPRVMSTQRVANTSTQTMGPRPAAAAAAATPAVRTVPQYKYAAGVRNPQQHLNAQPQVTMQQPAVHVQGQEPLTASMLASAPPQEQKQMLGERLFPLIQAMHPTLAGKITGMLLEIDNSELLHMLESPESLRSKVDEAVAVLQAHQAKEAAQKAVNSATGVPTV

What follows are compounds tested against Polyadenylate-binding protein 1 (Homo sapiens) (UniProt P11940) (assay: inhibitors of PABP1 MLLE–PAM2 peptide binding, primary screen, biochemical, fluorescence polarization, FITC-PAM2, GST-MLLE (AID 588489;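 further: plate controls were DMSO wells with GST-MLLE for no effect and wells lacking GST-MLLE protein for full effect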)). Conditions: at 20 µM, hits give high values.
In the case of CCC(=O)N(c1ccccc1)C1(COC)CCN(CCc2cccs2)CC1, the inhibition is reported as inactive: 2.83%.
In the case of CCC(=O)N(c1ccccc1)C1(COC)CCN(CCn2nnn(CC)c2=O)CC1, the inhibition is reported as inactive: 0.68%.
